Laboratory results reported in paper PMC7693775, “AGTR1 Is Overexpressed in Neuroendocrine Neoplasms, Regulates Secretion and May Potentially Serve as a Target for Molecular Imaging and Therapy” (Cancers, 2020).

Target: T1, ATII receptor (AGTR1, AGTR2) (Homo sapiens, UniProt P30556)
T1 construct: Consecutive cryosections of each tissue were incubated with the radioligand in the absence or presence of an excess of non-labeled ATII; from tissue; host or cells: flash-frozen cryosections of patient pancreatic and small-intestinal NEN and of control pancreas, small intestine and liver
Test: in vitro receptor autoradiography of tissue cryosections
Assay type: binding
Details: 1 µM competitor

displacement of 125I-ATII binding (pancreatic NEN tissues #1, #4, #6, #8): clearly displaced
displacement of 125I-ATII binding (small-intestinal NEN tissues): displaced
SMILES: CCCCC(=O)N(Cc1ccc(-c2ccccc2-c2nnn[nH]2)cc1)[C@H](C(=O)O)C(C)C [valsartan]
